Where two headings read alike, the source gives them in different places. Bounds are passed on as bounds.

Amino acid sequences for entries named in this document (tags omitted). Residues count along the entry.
UniProt Q8NHM5, 1-650 limits assumed: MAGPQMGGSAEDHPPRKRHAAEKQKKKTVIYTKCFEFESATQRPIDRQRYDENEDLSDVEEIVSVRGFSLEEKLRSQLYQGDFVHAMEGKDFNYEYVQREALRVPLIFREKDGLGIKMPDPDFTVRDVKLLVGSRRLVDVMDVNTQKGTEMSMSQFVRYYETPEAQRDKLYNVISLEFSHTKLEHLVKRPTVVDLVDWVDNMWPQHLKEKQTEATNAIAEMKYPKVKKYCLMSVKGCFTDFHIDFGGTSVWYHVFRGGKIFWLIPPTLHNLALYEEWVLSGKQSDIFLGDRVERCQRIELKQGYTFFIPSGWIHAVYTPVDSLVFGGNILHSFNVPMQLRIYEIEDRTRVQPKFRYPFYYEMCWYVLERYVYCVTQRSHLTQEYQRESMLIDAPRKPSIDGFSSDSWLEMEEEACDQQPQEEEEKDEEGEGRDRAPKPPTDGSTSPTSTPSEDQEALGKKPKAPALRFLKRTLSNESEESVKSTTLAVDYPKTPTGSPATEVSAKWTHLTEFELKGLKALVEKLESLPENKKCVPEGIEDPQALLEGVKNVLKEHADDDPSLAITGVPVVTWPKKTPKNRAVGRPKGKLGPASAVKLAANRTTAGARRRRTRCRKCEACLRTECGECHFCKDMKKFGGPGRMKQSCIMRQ
UniProt Q9UGL1, 1-809 limits assumed: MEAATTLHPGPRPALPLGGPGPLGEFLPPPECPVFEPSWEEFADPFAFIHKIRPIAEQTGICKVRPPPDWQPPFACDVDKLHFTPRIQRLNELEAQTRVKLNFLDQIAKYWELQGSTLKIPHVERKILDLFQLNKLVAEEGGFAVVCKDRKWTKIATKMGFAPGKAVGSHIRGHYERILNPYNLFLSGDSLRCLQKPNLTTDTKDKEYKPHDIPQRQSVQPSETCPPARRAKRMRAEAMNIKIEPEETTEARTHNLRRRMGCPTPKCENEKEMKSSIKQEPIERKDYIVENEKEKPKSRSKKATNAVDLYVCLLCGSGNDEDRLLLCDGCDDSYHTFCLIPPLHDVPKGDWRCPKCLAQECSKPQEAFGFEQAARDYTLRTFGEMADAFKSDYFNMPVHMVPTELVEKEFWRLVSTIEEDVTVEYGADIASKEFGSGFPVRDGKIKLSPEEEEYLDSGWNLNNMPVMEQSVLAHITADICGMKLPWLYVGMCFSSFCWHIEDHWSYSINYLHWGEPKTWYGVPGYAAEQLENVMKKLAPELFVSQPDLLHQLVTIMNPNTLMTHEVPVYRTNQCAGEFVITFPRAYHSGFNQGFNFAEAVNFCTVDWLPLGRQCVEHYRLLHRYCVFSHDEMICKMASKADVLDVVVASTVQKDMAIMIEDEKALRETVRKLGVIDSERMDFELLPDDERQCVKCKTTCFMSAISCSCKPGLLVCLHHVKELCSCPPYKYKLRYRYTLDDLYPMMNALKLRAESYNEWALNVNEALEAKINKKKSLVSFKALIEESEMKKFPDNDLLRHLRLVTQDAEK

One experiment addresses KDM2B (FBXL10) (Homo sapiens, UniProt Q8NHM5). Kind of experiment: Histone lysine demethylase AlphaLISA assay, KDM2B.
The next experiment deals with KDM5B (PLU-1) (Homo sapiens, UniProt Q9UGL1). Kind of experiment: Histone lysine demethylase AlphaLISA assay, KDM5B. In general terms: In Alpha technology, singlet oxygen from a donor bead excites a nearby acceptor bead.

On to `COc1ccc(OCc2ccccc2)c(CCNCc2cc(C(=O)O)cc(CO)n2)n1`, for which the IC50 is 242 nM on KDM2B (FBXL10) (read-out: HDME Inhibition KDM2B (IC50), AlphaLISA assay); 242 nM on KDM2B (FBXL10) (read-out: HDME Inhibition KDM2B, AlphaLISA, in vitro); above 10000 nM on KDM5B (PLU-1) (read-out: HDME Inhibition KDM5B (IC50), AlphaLISA assay); above 10000 nM at KDM5B (PLU-1) (read-out: HDME Inhibition KDM5B, AlphaLISA, in vitro).

The values above are taken from patent US9802941B2, “Compounds and methods for inhibiting histone demethylases” (Gilead Sciences, Inc., priority 2014, dated 2017).
